Experimental data taken from patent publication US11485744B2, “High penetration prodrug compositions of antimicrobials and antimicrobial-related compounds” (priority 2009, dated 2022).

Assay: In vitro penetration across isolated human skin in modified Franz cells
Method: Penetration rates of HPPs and their parent drugs through human skin were measured in vitro by modified Franz cells. A Franz cell had two chambers, the top sample chamber and the bottom receiving chamber. The human skin tissue (360-400 μm thick) that separated the top and the receiving chambers was isolated from the anterior or posterior thigh areas.
A test compound (2 mL, 10% in 0.2 M phosphate buffer, pH 7.4) was added to the sample chamber of a Franz cell. The receiving chamber contained 10 ml of 0.2 M phosphate buffer which was stirred at 600 rpm. The amount of the tested compound penetrating the skin was determined by high-performance liquid chromatography (HPLC) method.

penicillin V [reference compound]
apparent flux value: less than 1 μg/cm^2/h
In vitro Penetration Rate (apparent flux), Parent compounds (pH 7.4): <0.001 mg/cm^2/h

(2S,5R)-3,3-dimethyl-7-oxo-4-thia-1-azabicyclo[3.2.0]heptane-2-carboxylic acid 4,4-dioxide N,N-diethylaminoethyl ester•HCl salt [sulbactam-DEE]
In vitro Penetration Rate (apparent flux), HPPs of beta-lactamases inhibitors (Table 1b, isolated human skin, Franz cells, 10% in 0.2 M phosphate buffer pH 7.4, n=5): 0.35 ± 0.03 mg/cm^2/h

6-(5-methyl-3-phenyl-2-isoxazoline-4-carboxamido)penicillinic acid 4-piperidineethyl ester hydrochloride
In vitro Penetration Rate (apparent flux), HPPs (pH 7.4): 0.77 ± 0.08 mg/cm^2/h
